Test results as given in patent publication US9616064B2, “Rho kinase inhibitors and methods of use” (H. LEE MOFFITT CANCER CENTER AND RESEARCH INSTITUTE, INC., priority 2011, dated 2017).

Chains of the proteins cited; added tags and fusions are not shown. Lines headed by an entry give the natural chain unless they say otherwise; changes in a name come on top.
UniProt Q13464: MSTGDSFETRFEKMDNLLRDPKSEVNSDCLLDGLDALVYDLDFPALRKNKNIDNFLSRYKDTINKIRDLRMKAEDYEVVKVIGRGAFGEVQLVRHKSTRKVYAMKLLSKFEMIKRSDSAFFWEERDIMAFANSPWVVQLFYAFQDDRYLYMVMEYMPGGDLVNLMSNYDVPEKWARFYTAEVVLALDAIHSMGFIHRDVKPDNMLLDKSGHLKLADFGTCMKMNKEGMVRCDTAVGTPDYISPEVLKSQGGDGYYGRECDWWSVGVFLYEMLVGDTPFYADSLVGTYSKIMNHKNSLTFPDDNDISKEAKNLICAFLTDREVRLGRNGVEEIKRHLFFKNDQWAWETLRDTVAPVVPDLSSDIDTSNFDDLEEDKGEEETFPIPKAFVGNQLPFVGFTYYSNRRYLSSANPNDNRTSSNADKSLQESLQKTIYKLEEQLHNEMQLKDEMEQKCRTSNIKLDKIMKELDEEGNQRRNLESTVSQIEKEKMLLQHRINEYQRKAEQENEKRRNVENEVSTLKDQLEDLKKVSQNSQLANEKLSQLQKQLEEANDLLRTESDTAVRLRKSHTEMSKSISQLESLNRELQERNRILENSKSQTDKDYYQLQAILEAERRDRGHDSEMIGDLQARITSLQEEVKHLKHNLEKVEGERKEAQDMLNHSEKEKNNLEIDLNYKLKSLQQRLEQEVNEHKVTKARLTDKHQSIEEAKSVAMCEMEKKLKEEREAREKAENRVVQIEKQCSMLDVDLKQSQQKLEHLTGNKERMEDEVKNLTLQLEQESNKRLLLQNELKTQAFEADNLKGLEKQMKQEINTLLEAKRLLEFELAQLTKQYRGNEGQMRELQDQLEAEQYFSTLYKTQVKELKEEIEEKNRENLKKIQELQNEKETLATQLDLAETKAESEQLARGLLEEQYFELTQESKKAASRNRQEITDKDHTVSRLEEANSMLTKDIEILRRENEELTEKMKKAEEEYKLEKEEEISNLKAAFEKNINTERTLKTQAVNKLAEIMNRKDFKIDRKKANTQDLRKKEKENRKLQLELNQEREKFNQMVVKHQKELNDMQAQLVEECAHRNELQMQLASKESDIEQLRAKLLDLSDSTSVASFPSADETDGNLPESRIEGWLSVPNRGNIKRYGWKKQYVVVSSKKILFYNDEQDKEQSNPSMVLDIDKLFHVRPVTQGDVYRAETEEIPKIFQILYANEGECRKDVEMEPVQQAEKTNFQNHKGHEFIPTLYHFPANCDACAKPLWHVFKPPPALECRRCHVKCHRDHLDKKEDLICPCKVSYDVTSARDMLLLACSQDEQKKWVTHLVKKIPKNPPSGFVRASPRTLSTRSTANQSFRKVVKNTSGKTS
UniProt O75116, whole entry, species assumed: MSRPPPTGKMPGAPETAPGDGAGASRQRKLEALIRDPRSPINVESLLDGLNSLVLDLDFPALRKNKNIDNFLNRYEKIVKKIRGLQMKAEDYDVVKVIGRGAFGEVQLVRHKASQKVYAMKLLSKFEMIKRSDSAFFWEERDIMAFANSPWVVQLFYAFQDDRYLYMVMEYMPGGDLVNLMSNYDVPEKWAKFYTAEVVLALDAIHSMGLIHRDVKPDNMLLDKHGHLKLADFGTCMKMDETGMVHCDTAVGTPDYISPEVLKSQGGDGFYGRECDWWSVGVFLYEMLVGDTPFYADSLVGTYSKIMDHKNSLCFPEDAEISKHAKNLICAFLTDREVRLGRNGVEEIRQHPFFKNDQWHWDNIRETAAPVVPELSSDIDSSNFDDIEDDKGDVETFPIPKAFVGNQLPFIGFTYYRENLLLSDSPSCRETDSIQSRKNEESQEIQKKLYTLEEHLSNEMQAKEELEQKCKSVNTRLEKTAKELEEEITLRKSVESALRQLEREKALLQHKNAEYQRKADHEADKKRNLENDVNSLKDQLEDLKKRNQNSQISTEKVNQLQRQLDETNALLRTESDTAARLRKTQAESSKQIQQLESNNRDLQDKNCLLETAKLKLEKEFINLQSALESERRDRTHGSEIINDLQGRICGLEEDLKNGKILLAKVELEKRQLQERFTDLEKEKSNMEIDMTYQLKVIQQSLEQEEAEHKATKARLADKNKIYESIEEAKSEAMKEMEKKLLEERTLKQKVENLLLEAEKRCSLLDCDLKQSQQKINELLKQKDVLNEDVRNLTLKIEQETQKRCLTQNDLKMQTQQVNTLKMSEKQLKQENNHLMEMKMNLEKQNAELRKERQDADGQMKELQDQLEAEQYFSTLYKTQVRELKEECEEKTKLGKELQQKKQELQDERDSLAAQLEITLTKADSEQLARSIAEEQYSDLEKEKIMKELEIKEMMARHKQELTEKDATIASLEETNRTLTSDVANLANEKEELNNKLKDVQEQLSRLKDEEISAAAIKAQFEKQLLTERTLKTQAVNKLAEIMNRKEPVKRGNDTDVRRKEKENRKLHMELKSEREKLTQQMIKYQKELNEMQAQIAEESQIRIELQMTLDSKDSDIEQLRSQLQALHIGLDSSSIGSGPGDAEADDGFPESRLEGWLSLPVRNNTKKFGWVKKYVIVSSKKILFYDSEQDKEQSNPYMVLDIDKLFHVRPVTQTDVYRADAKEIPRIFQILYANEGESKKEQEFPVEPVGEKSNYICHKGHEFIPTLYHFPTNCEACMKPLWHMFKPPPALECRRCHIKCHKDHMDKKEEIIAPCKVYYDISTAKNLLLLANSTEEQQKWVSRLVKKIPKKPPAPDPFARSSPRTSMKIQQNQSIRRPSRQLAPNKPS

Columns and labels:
ROCK1 = ROCK1 (Homo sapiens (Human), UniProt Q13464); experiment: Z-lyte FRET assay to measure kinase inhibition, ROCK1; format: biochemical
ROCK2 = ROCK2 (Homo sapiens (Human), UniProt O75116); experiment: Z-lyte FRET assay to measure kinase inhibition, ROCK2; format: biochemical

Molecule `Nc1nccc(-n2ccc3cc(NC(=O)Cc4ccccc4)ccc32)n1` has an IC50 (ROCK1) of 20.8 ± 6.3 µM, an inhibition at 50 µM (ROCK1; read-out: ROCK1 % inhibition @ 50 μM) of 53 ± 1% and an IC50 (ROCK2) of 5.8 ± 1.4 µM.
